Earlier results as cited in patent US20250299826A1, “OPTIMAL TUMOR MICROENVIRONMENT NORMALIZATION THERAPY” (University of Connecticut, priority 2022, published 2025).
Where two headings read alike, the source gives them in different places.

Details: cited from earlier work

In the case of 70 kDa rhodamine-bound dextran, the “k_d, blood circulation time” value (tumor transport model parameter) is listed as 1480 min.
For 500 kDa FITC-bound dextran, the “half-life of vascular concentration” value (in vivo) is given as “around 21 h” and the “k_d, blood circulation time” value (in vivo) is given as 1278 min.
